Experiment [1] deals with Protein mono-ADP-ribosyltransferase PARP14 (Homo sapiens, UniProt Q460N5).
The target in experiment [2] is T1, Protein mono-ADP-ribosyltransferase PARP10 (Homo sapiens, UniProt Q53GL7).
T1 sequence (Q53GL7 whole entry): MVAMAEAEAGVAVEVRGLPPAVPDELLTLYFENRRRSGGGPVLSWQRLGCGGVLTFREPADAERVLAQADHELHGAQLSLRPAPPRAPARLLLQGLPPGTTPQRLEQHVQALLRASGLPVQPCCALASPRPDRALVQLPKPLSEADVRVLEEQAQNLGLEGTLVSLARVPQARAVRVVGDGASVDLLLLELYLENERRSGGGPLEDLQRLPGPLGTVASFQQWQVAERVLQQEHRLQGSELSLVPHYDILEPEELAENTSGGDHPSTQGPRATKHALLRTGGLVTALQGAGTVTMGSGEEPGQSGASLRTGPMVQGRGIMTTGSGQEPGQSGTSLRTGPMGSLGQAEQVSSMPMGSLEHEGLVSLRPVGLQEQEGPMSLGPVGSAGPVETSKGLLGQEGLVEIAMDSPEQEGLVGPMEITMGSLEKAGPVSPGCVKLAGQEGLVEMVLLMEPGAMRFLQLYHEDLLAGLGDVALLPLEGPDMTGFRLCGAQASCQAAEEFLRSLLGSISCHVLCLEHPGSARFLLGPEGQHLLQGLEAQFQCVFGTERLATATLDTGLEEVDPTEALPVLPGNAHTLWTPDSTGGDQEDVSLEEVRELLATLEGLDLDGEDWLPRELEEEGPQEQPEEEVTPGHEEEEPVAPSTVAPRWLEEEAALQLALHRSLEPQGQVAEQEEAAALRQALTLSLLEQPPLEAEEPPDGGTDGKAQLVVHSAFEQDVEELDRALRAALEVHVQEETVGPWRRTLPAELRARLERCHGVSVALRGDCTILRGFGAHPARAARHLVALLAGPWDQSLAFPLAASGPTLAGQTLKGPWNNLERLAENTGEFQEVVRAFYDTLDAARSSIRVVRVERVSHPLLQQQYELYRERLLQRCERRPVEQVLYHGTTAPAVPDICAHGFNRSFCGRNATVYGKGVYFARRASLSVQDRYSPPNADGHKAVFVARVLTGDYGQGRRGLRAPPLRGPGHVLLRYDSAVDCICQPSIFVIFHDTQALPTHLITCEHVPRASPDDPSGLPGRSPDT
Nature of the experiment: Binding affinity to PARP10 (unknown origin) assessed as apparent dissociation constant. To be noted: read-out: Kd(app).

By UniProt entry, the sequences of proteins in these tests, tags left out.
UniProt Q460N5, whole entry: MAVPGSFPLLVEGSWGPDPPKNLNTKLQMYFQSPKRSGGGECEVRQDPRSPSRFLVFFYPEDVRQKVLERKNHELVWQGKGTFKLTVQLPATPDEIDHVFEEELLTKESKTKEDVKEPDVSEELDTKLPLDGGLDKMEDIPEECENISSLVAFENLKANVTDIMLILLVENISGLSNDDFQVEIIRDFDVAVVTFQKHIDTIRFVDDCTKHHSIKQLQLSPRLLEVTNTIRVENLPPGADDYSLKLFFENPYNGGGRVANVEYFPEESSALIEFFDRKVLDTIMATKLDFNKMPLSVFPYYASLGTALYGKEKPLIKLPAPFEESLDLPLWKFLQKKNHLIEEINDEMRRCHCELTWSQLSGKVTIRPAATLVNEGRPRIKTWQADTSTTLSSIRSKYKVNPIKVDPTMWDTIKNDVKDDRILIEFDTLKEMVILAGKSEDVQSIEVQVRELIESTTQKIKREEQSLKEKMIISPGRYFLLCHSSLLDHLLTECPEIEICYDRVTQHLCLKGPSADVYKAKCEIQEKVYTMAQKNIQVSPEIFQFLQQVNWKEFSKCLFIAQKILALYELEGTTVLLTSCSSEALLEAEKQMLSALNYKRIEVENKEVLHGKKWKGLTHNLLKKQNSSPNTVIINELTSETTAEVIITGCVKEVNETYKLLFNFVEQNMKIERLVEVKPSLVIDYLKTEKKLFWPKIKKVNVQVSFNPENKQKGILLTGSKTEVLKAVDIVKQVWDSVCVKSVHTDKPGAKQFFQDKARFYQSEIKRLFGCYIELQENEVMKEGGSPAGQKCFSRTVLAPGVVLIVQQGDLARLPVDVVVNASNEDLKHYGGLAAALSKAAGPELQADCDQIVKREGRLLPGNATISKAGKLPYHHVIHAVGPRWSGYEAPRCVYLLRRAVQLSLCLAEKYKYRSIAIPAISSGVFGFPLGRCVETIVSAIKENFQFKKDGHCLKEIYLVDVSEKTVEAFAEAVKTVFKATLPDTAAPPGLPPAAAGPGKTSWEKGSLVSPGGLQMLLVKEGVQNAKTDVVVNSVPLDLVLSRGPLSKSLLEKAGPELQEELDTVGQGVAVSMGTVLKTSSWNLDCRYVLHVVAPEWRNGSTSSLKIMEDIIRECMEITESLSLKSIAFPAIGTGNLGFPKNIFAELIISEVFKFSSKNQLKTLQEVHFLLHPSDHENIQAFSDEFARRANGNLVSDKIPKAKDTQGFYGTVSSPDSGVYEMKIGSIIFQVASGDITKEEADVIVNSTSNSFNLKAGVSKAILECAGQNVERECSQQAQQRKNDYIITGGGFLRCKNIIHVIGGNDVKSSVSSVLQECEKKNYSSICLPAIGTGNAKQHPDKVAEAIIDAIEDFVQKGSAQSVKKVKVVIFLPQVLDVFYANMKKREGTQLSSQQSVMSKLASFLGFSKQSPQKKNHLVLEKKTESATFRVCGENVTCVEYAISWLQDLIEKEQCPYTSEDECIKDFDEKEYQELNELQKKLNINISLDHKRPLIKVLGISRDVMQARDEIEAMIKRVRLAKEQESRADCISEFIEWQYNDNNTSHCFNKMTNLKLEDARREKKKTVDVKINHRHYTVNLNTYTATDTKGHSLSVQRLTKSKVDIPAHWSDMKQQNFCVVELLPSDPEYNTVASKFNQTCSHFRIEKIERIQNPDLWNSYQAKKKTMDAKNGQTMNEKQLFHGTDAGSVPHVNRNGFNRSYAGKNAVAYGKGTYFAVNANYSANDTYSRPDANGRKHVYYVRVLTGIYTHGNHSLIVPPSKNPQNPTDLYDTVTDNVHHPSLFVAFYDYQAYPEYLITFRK

Experiment [3] deals with T2, Protein mono-ADP-ribosyltransferase PARP16 (Homo sapiens, UniProt Q8N5Y8).
T2 sequence (Q8N5Y8 whole entry): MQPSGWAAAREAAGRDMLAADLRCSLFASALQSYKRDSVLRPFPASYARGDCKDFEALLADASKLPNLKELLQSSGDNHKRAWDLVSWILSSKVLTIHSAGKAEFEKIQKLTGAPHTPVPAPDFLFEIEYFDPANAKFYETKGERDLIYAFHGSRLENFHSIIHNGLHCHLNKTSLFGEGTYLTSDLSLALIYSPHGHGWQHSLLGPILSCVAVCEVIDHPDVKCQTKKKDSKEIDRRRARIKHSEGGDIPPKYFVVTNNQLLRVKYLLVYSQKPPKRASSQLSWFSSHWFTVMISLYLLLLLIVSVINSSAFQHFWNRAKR
The experiment is described as follows: Binding affinity to PARP16 (unknown origin) assessed as apparent dissociation constant. To be noted: read-out: Kd(app).

Experiment [4] addresses T3, Protein mono-ADP-ribosyltransferase PARP12 (Homo sapiens, UniProt Q9H0J9).
T3 sequence (Q9H0J9 whole entry): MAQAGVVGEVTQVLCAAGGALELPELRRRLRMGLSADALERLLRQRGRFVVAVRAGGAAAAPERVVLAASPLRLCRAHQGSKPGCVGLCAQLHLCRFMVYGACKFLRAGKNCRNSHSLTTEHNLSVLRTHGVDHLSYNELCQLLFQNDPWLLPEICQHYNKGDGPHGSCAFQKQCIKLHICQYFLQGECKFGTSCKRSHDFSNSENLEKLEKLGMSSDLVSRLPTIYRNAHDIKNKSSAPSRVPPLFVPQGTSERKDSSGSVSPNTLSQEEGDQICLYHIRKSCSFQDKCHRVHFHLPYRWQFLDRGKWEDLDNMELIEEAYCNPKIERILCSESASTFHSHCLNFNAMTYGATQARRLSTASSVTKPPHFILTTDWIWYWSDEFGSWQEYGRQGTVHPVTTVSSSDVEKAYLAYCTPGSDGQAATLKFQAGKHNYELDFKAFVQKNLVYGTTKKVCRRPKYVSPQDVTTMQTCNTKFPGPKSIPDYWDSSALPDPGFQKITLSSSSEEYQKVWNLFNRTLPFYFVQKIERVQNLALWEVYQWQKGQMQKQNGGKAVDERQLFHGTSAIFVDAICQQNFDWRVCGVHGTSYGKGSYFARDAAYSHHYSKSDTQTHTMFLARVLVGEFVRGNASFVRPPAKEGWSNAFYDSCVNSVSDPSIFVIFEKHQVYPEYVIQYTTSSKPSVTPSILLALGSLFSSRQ

The target in experiment [5] is T4, Poly [ADP-ribose] polymerase tankyrase-2 (Homo sapiens, UniProt Q9H2K2).
T4 sequence (Q9H2K2 whole entry): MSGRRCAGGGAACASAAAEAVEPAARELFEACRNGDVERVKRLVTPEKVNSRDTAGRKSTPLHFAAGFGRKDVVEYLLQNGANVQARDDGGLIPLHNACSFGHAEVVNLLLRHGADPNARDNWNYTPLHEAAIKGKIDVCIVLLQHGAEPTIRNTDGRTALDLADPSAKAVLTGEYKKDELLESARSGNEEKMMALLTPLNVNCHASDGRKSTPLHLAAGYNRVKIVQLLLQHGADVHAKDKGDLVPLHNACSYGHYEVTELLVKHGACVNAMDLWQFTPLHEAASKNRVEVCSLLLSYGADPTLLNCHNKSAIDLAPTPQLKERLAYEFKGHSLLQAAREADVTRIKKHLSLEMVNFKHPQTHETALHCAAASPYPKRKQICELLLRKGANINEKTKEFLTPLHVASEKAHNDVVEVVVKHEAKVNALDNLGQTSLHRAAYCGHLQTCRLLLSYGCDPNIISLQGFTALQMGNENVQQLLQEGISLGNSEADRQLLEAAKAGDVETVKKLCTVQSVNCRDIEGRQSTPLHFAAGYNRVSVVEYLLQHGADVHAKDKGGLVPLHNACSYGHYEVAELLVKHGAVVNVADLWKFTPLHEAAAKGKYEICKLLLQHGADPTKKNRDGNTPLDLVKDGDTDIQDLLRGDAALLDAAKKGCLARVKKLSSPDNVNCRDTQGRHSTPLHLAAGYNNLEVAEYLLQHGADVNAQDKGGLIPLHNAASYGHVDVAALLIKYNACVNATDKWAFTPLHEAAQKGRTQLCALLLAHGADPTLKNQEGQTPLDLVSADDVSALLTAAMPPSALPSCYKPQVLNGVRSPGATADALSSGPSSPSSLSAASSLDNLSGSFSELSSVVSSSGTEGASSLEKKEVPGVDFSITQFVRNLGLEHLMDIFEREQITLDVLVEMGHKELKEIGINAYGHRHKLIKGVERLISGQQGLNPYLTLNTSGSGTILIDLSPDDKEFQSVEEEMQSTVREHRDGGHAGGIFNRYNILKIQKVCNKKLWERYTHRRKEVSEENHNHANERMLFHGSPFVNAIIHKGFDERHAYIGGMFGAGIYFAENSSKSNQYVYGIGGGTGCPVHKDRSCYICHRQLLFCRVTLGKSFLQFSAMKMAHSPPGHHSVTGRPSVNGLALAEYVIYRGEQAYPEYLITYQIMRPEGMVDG

Data on four compounds can be found in ChEMBL document CHEMBL5150005, “Discovery of 5-{4-[(7-Ethyl-6-oxo-5,6-dihydro-1,5-naphthyridin-3-yl)methyl]piperazin-1-yl}-N-methylpyridine-2-carboxamide (AZD5305): A PARP1-DNA Trapper with High Selectivity for PARP1 over PARP2 and Other PARPs” (J Med Chem, 2021).

SMILES strings stand for the structures. A value given as a limit tells only on which side of the number the result lay.

In experiment [1], `Cn1ncnc1[C@H]1c2n[nH]c(=O)c3cc(F)cc(c23)N[C@@H]1c1ccc(F)cc1` [TALAZOPARIB] yielded a Kd above 10 µM.

`C[C@]1(c2nc3c(C(N)=O)cccc3[nH]2)CCCN1` [VELIPARIB]: the Kd is 6.8 µM in experiment [2] and above 10 µM in experiment [3]. `CNCc1ccc(-c2[nH]c3cc(F)cc4c3c2CCNC4=O)cc1` [RUCAPARIB]: the Kd in experiment [4] was above 10 µM.

Regarding `NC(=O)c1cccc2cn(-c3ccc([C@@H]4CCCNC4)cc3)nc12` [NIRAPARIB], the Kd in experiment [4], in experiment [1] and in experiment [5] was above 10 µM each time.
